Data as given in patent publication US8529904B2, “Immunotherapeutic methods using epitopes of WT-1 and GATA-1” (Ganymed Pharmaceuticals AG, priority 1998, dated 2013).

Tests used:
[1] = target: T1, HLA-A0201 (Homo sapiens, UniProt P04439, D140Y/D185E/D98H/E176V/E277Q/G131W/G231S/I119V/I121R/I166T/I218V/L300P/L318F/N151K/N90K/P208A/P217A/Q86G/Q94H/R138H/R169H/T345S); experiment: Peptide binding assay (surface HLA-A2 on T2 cells, FACS)
T1 construct: stained by indirect immunofluorescence for surface HLA-A2; endogenous in cells; host or cells: T2 cells (human, TAP-deficient; ATCC CRL 1992)
Description: Peptide binding assay: 5×10^5 T2 cells were incubated overnight (o/n) in 96 well plates in 100 ml of RPMI 1640 medium with 5% boiled FCS (to destroy proteases) and varying concentrations of synthetic peptides. Wells containing T2 cells without peptides or known A2-binding peptides were used as negative and positive control, respectively. Following overnight incubation cells were washed and stained by indirect immunofluorescence for surface HLA-A2 with A-2 specific monoclonal antibodies HB54 and HB117 (American Type Culture Collection, ATCC). FACS analysis was performed on a Coulter Corporation flow cytometer (Haiteah, Fla.).

[2] = tested on: lymphocytes from HLA-A0201- donors; experiment: Generation of allo-HLA-restricted CTL lines (in vitro stimulation); assay type: cell-based, human; settings: in vitro stimulation of lymphocytes from different donors
Description: Generation of allo-HLA-restricted CTL lines. PBMC were separated from buffy coat packs using Ficoll gradient centrifugation and stained with monoclonal antibodies HB54 (anti-HLA-A2, B17) and HB117 (anti-HLA-A2, A28). A2-negative PBMC were used as responders. Peptide coated Drosophila cells transfected with HLA-A0201, human β2-microglobulin, B7.1 and ICAM-1 were used as initial stimulators. Drosophila cells were induced in 100 mM CuSO4 for 48 hours washed three times with medium and loaded with peptide at a concentration of 100 μM for 4 hours. Each well of 24 well plate received 2×10^6 responder PBMC and 2×10^5 stimulator cells in 2 ml T cell medium. On day 5 T cells were harvested and plated in fresh T cell medium at a density of 5×10^5 per well with the addition of 2×10^6 autologous irradiated PBMC as feeders, 2×10^5 irradiated peptide-coated T2 cells, 10% QS4120 culture supernatant (containing anti-CD4 antibodies) and 10 U/ml hu-rIL-2 (Boehringer). The cultures were restimulated weekly using T2 cells coated with the immunizing peptide as stimulators. After 2-3 cycles of stimulation the bulk cultures were cloned in 96 well plates at a density of 1, 10 and 30 cells per well. 10^4 peptide-coated T2 cells, 2×10^5 HLA-A2 negative PBMC feeders and 2 U/ml IL-2 were added to each well. […]

RMFPNAPYL [WT126-34]
binding to HLA-A0201 class I molecules [1]: binds | immunogenicity (induction of peptide-specific, HLA-A0201-restricted CTL) [2]: highly immunogenic
